This is a selection; strong and weak results do not stand in their true shares. Some salts and complexes are drawn in separate pieces, as the source files them; their charges need not balance. Activity calls are given as the source filed them.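 How the source made its calls: active means activation, scaled between plate controls, above about 75% (limit read from the data); inactive means activation under that limit.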

A short description of the assay: inhibitors of zVAD-triggered necroptosis, primary screen, L929 cells (AID 1377).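 Further: 0% = zVAD with DMSO and 100% = DMSO alone without zVAD.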 The note with it: ATP luminescence, 24 h, at 10 µM, stronger effect = higher value; with zVAD 60 µM unless noted.
Consider `O=C(O)c1cccc(Nc2c([N+](=O)[O-])cc([N+](=O)[O-])cc2[N+](=O)[O-])c1`, for which the viability rescue was inactive: -0.47%.
In the case of `CC1=NCCc2c1[nH]c1ccccc21.O=[N+]([O-])c1cc([N+](=O)[O-])c(O)c([N+](=O)[O-])c1`, the viability rescue is inactive: -0.13% [with zVAD 20 µM].
`Cc1cc(C)cc(OP(C)(=O)Nc2ccc(C)cc2C)c1` (stereo not given): the viability rescue was inactive: -0.48%.
For `CCOC(=O)c1ccc(NP(C)(=O)Oc2cc(C)cc(C)c2)cc1` (stereo not given) the value was inactive: 1.99%; for `COc1ccccc1OP(C)(=O)Nc1cccc(Br)c1` (stereo not given), inactive: 0.45%.
With `COc1cc(C(=O)NCC2(N3CCOCC3)CCCCC2)cc(Cl)c1OC(C)C` the figure was inactive: 1.71%; with `Cc1cc(C)cc(OP(C)(=O)Nc2ccccn2)c1` (stereo not given), inactive: 0.37%; with `CP(=O)(Nc1cccc(Br)c1)Oc1ccccc1` (stereo not given), inactive: -0.5%.
For `Cc1ccc(C)c(NP(C)(=O)Oc2ccccc2)c1` (stereo not given) the value was inactive: -0.15% [with zVAD 20 µM]; for `O=[N+]([O-])c1cc([N+](=O)[O-])c(-n2nnc3ccccc32)c([N+](=O)[O-])c1`, inactive: 2.52%.
With `Cc1nc2ccc3ccccc3c2s1.O=[N+]([O-])c1cc([N+](=O)[O-])c(O)c([N+](=O)[O-])c1`, the viability rescue is inactive: 0.44% [with zVAD 20 µM].
Take `CCOC(=O)C(CC)C1=NC(C)(C)Cc2ccccc21.O=[N+]([O-])c1cc([N+](=O)[O-])c(O)c([N+](=O)[O-])c1` (stereo not given): the viability rescue was inactive: 0.01%.
With `CN(C)C1(CNC(=O)c2ccc(S(C)(=O)=O)cc2)CCCCC1` the figure was inactive: -0.05%.
On to `O=[N+]([O-])c1cc([N+](=O)[O-])c(Nc2nnnn2CCO)c([N+](=O)[O-])c1`, for which the viability rescue is inactive: 0.11%.
With `CCCOc1ccc(NP(C)(=O)Oc2ccc(Cl)cc2)cc1` (stereo not given) the figure was inactive: 1.5%.
For `CP(=O)(Nc1ccc(SC(F)(F)F)cc1)Oc1ccccc1` (stereo not given) the value was inactive: 1.02%.
In the case of `COc1ccccc1OP(C)(=O)Nc1c(C)cccc1C` (stereo not given), the viability rescue is inactive: 0.06% [with zVAD 20 µM].
For `CN1CCCCC1COC(=O)C1(O)c2ccccc2CCc2ccccc21` (stereo not given) the value was inactive: -0.26%; for `COc1ccccc1OP(C)(=O)Nc1ccccc1` (stereo not given), inactive: 1.82%.
In the case of `CP(=O)(Nc1ccccc1Br)Oc1ccccc1` (stereo not given), the viability rescue was inactive: -0.08%.
For `CP(=S)(Nn1cnnc1)Oc1ccccc1` (stereo not given) the value was inactive: 0.41%; for `Cc1cc(C)cc(OP(C)(=O)Nc2ccc(SC(F)(F)F)cc2)c1` (stereo not given), inactive: 0.89%; for `CP(=O)(NC(=O)Nc1ccccc1)Oc1ccccc1` (stereo not given), inactive: -0.22% [with zVAD 20 µM].
For `CCc1ccc(OP(C)(=O)N2CCN(c3ccc([N+](=O)[O-])cc3)CC2)cc1` (stereo not given) the value was inactive: -0.07%.
With `CP(=O)(Oc1ccccc1)OC(c1ccccc1)C(F)(F)F` (stereo not given) the figure was inactive: -0.05%; with `Cc1cccc(C)c1OP(C)(=O)Nc1ccc(SC(F)(F)F)cc1` (stereo not given), inactive: -0.47% [with zVAD 20 µM]; with `CP(=O)(Nc1ccc(SC(F)(F)F)cc1)Oc1ccc(Cl)cc1` (stereo not given), inactive: 1.77%.
For `CP(=O)(Nc1ccccn1)Oc1ccc(Cl)cc1` (stereo not given), the viability rescue is inactive: 0.2%.
`CCOP(C)(=S)SCC(=O)NC(C)C(=O)O` (stereo not given): the viability rescue was inactive: -0.32%.
For `CCOC(=O)c1ccc(NP(C)(=O)Oc2ccc(OC)cc2)cc1` (stereo not given) the value was inactive: 2.15%; for `CCN(CC)CCCOC(=O)C(O)(c1ccccc1)c1ccccc1`, inactive: -2.12%.
For the compound `Cc1cccc(C)c1OP(C)(N)=O` (stereo not given), the viability rescue is inactive: 2.3%.
With `CC(C)(C)c1ccc(OP(C)(=O)Nc2ccc(SC(F)(F)F)cc2)cc1` (stereo not given) the figure was inactive: 8.27%; with `O=[N+]([O-])c1ccc2c(c1)C=Nc1ccccc1O2`, inactive: -2.03%.
With `COc1ccc(OP(C)(=O)Nc2cccc(F)c2)cc1` (stereo not given) the figure was inactive: 1.84%; with `COc1ccccc1OP(C)(=O)Nc1cc(Cl)ccc1C` (stereo not given), inactive: 0.02%; with `Cc1cc(C)cc(OP(C)(N)=O)c1` (stereo not given), inactive: -0.25%.
Consider `CCOC(=O)c1ccc(NP(C)(=O)Oc2ccccc2)cc1` (stereo not given), for which the viability rescue is inactive: 0.86%.
For `Cc1ccc(NP(C)(=O)Oc2ccccc2)c(C)c1` (stereo not given) the value was inactive: -0.15%; for `COc1ccccc1OP(C)(=O)Nc1ccc(C)cc1` (stereo not given), inactive: 4.29%.
For `COc1ccc(OP(C)(=O)Nc2ccccc2Br)cc1` (stereo not given) the value was inactive: 1.14%; for `COc1ccccc1OP(C)(=O)Nc1ccc(C)c(C)c1` (stereo not given), inactive: 0.17% [with zVAD 20 µM]; for `Cc1cc(C)cc(OP(C)(=O)Nc2cccc(C(F)(F)F)c2)c1` (stereo not given), inactive: 0.45%.
For `CP(=O)(Nc1ccc(Cl)cc1Cl)Oc1ccccc1` (stereo not given) the value was inactive: 0.2%; for `CP(=O)(OCCOc1ccccc1)OCCOc1ccccc1`, inactive: 0.7%.
As for `Cc1nc2ccc3ccccc3c2o1.O=[N+]([O-])c1cc([N+](=O)[O-])c(O)c([N+](=O)[O-])c1`, the viability rescue was inactive: 0.06% [with zVAD 20 µM].
With `CN(C)CCOC(=O)C(O)(c1ccccc1)C1CCCC1` (stereo not given), the viability rescue was inactive: -0.3%.
On to `COc1ccc(OP(C)(=O)Nc2ccccn2)cc1` (stereo not given), for which the viability rescue was inactive: 0.64%.
For `COc1ccccc1OP(C)(=O)Nc1ccc(Br)cc1` (stereo not given) the value was inactive: 0.63%; for `CCc1ccc(OP(C)(=O)O)cc1`, inactive: -0.21% [with zVAD 20 µM].
With `COc1ccccc1OP(C)(=O)Nc1ccc(C)cc1C` (stereo not given) the figure was inactive: 0.02% [with zVAD 20 µM]; with `CP(=O)(Nc1ccccn1)Oc1ccccc1` (stereo not given), inactive: -0.14% [with zVAD 20 µM]; with `Cc1c(NP(C)(=O)Oc2ccc(C(C)C)cc2)c(=O)n(-c2ccccc2)n1C` (stereo not given), inactive: 0.37% [with zVAD 20 µM].
With `O=[N+]([O-])c1cc([N+](=O)[O-])c(Nc2ccccn2)c([N+](=O)[O-])c1` the figure was inactive: 6.18%.
Regarding `CCc1ccc(OP(C)(=O)Nc2cccnc2)cc1` (stereo not given), the viability rescue was inactive: 0.93%.
For `CP(=O)(Oc1ccccc1)N1CCOC1=O` (stereo not given) the value was inactive: -0.48% [with zVAD 20 µM]; for `O=C(OCCCN1CCCC1)C(O)(c1ccccc1)C1CCCCC1` (stereo not given), inactive: 1.09%; for `COc1ccccc1OP(C)(=O)Nc1c(C)n(C)n(-c2ccccc2)c1=O` (stereo not given), inactive: -0.89% [with zVAD 20 µM].
With `COc1ccc(OP(C)(=O)Nc2ccc(Br)cc2)cc1` (stereo not given) the figure was inactive: 1.72%; with `CCN(CC)CC(O)COC(=O)C(O)(c1ccccc1)C1CCCCC1` (stereo not given), inactive: 0.48% [with zVAD 20 µM].
With `CN(C)C(=O)c1c([N+](=O)[O-])cc([N+](=O)[O-])cc1[N+](=O)[O-]` the figure was inactive: -0.8%.
`CP(=O)(Nc1ccc(Cl)cc1)Oc1ccc(F)cc1` (stereo not given): the viability rescue is inactive: 0.04% [with zVAD 20 µM].
For `COc1ccccc1OP(C)(=O)Nc1ccccc1Br` (stereo not given) the value was inactive: 0.56%; for `CC(C)(C)c1ccc(OP(C)(=O)O)cc1`, inactive: -0.07%; for `CP(=O)(OC12CC3CC(CC(C3)C1)C2)OC12CC3CC(CC(C3)C1)C2`, inactive: 1.32%.
For `CCOC(=O)c1ccc(NP(C)(=O)Oc2ccc(Cl)cc2)cc1` (stereo not given) the value was inactive: 1.53%; for `COc1ccc(NP(C)(=O)Oc2ccccc2OC)cc1` (stereo not given), inactive: -0.1%; for `CN(C)CCOC(=O)C(O)(c1ccccc1)C1CCCCC1` (stereo not given), inactive: -0.17% [with zVAD 20 µM].
In the case of `COc1ccc(OP(C)(=O)Nc2cccc(Br)c2)cc1` (stereo not given), the viability rescue was inactive: 0.22% [with zVAD 20 µM].
For the compound `Cc1cc(-c2cccc3ccccc23)c(C)cn1.O=[N+]([O-])c1cc([N+](=O)[O-])c(O)c([N+](=O)[O-])c1`, the viability rescue was inactive: 0.42%.
In the case of `O=[N+]([O-])c1cc([N+](=O)[O-])c(NCC2CCS(=O)(=O)C2)c([N+](=O)[O-])c1` (stereo not given), the viability rescue was inactive: 71.8%.
For `O=[N+]([O-])c1ccc(OP2(=O)COCCO2)cc1` (stereo not given) the value was inactive: 0.25%; for `CCOP(C)(=S)SCC(=O)NC(C)(CC)C(=O)O` (stereo not given), inactive: -0.23% [with zVAD 20 µM].
For `CP(=O)(Nc1ccc(SC(F)(F)F)cc1)Oc1ccc(F)cc1` (stereo not given), the viability rescue is inactive: 1.51%.
For `Cc1ccccc1NP(C)(=O)Nc1ccccc1C` the value was inactive: 1.62%.
With `CP(=O)(Nc1ccc2c(c1)OCCO2)Oc1ccccc1` (stereo not given), the viability rescue is inactive: 0.02% [with zVAD 20 µM].
With `CC(C)c1ccc(OP(C)(=O)Nc2ccc(SC(F)(F)F)cc2)cc1` (stereo not given) the figure was inactive: 6.74%.
`CP(=O)(Nc1ccccc1F)Oc1ccccc1` (stereo not given): the viability rescue is inactive: -0.2% [with zVAD 20 µM].
Take `COc1ccc2c(c1O)-c1c(O)c(OC)cc3c1[C@H](C2)[N+](C)(C)CC3.O=[N+]([O-])c1cc([N+](=O)[O-])c([O-])c([N+](=O)[O-])c1[O-]`: the viability rescue is inactive: 0.11%.
On to `O=C(OCCN1CCN(CCOCc2ccccc2)CC1)C(O)(c1ccccc1)c1ccccc1`, for which the viability rescue is inactive: 0.23%.
With `O=C(OC1CN2CCC1CC2)c1ccc([N+](=O)[O-])cc1` (stereo not given) the figure was inactive: 0.62%; with `COc1ccc(OP(C)(=O)Nc2ccc(SC(F)(F)F)cc2)cc1` (stereo not given), inactive: 3.88%.
With `CCCCCOc1ccc(NP(C)(=O)Oc2ccc(Cl)cc2Cl)cc1` (stereo not given) the figure was inactive: 1.2%; with `CP(=O)(Nc1ccccc1)Oc1ccc(F)cc1` (stereo not given), inactive: -0.12% [with zVAD 20 µM].
For `CCN(CC)CCCOC(=O)C(O)(c1ccccc1)C1CCCCC1` (stereo not given) the value was inactive: -0.74%.
